Source: PMC7604503, “Cyclic peptides can engage a single binding pocket through highly divergent modes” (Proceedings of the National Academy of Sciences of the …, 2020)

The chains behind the UniProt entries cited, without tags or fusion partners.
UniProt P51532, whole entry: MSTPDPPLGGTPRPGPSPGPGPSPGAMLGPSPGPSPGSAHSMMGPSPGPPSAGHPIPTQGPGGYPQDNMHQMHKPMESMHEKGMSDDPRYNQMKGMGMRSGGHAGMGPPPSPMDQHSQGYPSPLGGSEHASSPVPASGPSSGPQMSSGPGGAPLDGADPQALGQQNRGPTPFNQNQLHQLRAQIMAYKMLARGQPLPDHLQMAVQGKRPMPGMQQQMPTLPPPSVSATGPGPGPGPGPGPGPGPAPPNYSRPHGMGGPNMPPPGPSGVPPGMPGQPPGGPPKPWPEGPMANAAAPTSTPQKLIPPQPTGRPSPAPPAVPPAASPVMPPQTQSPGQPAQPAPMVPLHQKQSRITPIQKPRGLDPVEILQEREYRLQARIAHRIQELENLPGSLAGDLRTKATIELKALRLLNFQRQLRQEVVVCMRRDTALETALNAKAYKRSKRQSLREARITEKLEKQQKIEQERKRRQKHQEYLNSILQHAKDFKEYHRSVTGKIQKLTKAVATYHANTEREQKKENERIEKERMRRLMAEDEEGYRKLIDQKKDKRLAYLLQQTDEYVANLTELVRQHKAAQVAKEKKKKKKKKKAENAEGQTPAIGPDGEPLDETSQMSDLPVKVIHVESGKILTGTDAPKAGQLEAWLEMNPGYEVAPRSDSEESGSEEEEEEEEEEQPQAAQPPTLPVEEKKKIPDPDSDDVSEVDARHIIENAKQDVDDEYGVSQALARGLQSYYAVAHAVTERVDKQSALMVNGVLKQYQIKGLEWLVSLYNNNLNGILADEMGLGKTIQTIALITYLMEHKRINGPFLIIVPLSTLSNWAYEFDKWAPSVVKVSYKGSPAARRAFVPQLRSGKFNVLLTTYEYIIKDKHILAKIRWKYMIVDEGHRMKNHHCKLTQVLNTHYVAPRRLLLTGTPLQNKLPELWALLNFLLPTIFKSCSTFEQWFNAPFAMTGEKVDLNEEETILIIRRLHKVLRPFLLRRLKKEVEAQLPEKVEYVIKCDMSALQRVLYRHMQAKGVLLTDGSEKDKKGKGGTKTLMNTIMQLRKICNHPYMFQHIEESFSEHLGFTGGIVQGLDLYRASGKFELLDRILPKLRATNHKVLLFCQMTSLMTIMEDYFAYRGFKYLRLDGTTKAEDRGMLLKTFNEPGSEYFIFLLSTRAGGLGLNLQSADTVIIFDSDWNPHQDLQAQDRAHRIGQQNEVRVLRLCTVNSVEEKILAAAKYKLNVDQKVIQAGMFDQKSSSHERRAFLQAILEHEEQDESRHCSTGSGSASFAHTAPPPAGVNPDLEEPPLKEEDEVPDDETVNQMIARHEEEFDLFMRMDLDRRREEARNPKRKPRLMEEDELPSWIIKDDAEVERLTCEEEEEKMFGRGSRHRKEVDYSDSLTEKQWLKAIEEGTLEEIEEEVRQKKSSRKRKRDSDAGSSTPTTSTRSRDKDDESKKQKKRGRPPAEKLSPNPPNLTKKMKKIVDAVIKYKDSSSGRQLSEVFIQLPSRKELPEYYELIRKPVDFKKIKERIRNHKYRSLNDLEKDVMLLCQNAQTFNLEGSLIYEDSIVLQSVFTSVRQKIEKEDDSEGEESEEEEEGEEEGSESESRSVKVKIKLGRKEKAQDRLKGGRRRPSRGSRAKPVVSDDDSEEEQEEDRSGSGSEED

Assays:
[1] = system: BD2 domains (BRD2-BD2, BRD3-BD2, BRD4-BD2); test: SPR binding, stated for the BD2 domains together; set-up: species or system human
SMARCA4 = SMARCA4 (Homo sapiens, UniProt P51532); test: biochemical; settings: read-out: Percent Control SMARCA4

## CC[C@H](C)[C@H](NC(=O)[C@H](CCCNC(=N)N)NC(=O)[C@H](CCCCNC(C)=O)NC(=O)[C@H](CCCNC(=N)N)NC(=O)[C@H](CC(C)C)NC(=O)[C@@H]1CSCC(=O)N[C@@H](Cc2c[nH]c3ccccc23)C(=O)N[C@@H](CCCCNC(C)=O)C(=O)NCC(=O)N[C@@H](Cc2ccc(O)cc2)C(=O)N[C@@H](CC(C)C)C(=O)N1)C(=O)N[C@@H](CCC(N)=O)C(=O)N[C@@H](CCCNC(=N)N)C(=O)N[C@H](C(=O)N[C@@H](Cc1ccc(O)cc1)C(=O)N[C@@H](CC(N)=O)C(N)=O)[C@@H](C)O [4.2C]
[1]
  selectivity for BD2 domains over BD1 domains (in words): significant selectivity
SMARCA4
  remaining activity at 1 µM: 63%
